Experimental data taken from US12240815B2, “Potent and selective human neuronal nitric oxide synthase inhibitors” (Northwestern University, priority 2020, dated 2025).

How the values were obtained:
[1] = target: rat nNOS (Rattus norvegicus, UniProt P29476); test: NO hemoglobin capture assay, rat nNOS; type: biochemical; details: Table 1; Ki from IC50 by Cheng-Prusoff; 10 μM L-Arg, pH 7.4, 37° C.
[2] = target: murine macrophage iNOS (Mus musculus, UniProt P29477); test: NO hemoglobin capture assay, murine iNOS; type: biochemical; details: Table 1; Ki from IC50 by Cheng-Prusoff; 10 μM L-Arg, pH 7.4, 37° C.
[3] = target: human eNOS (Homo sapiens, UniProt P29474); test: NO hemoglobin capture assay, human eNOS; details: read-out: Ki human eNOS; Table 2
[4] = target: human iNOS (Homo sapiens, UniProt P35228); test: NO hemoglobin capture assay, human iNOS; details: read-out: Ki human iNOS; Table 2

Ki [1]: 26 nM
Ki [2]: 2060 nM
Ki [3]: 22000 nM
Ki [4]: 1780 nM
Compound: Cc1cc(N)nc(CCc2cc(CC[C@H]3CCN3C)cc(F)c2F)c1 [Compound 21, (S)-6-(2,3-difluoro-5-(2-(1-methylazetidin-2-yl)ethyl)phenethyl)-4-methylpyridin-2-amine]
